These results are taken from patent publication US20140051601A1, “METABOLOMIC PROFILING OF CANCER” (METABOLAN INC., priority 2006, published 2014).

The test system of one experiment is RWPE cells. As to the kind of experiment: Sarcosine-induced invasion after pre-treatment with EGFR inhibitor. The format is cell-based. The note with it: 50 μg/ml.
In a further experiment the test system is PrEC cells. The description is as above. It counts as cell-based. The note with it: 50 μg/ml.

As to “C225: antibody-mediated inhibition of EGFR activity”, the “block of sarcosine induced invasion” value in the experiment on RWPE cells and in the experiment on PrEC cells was “completely blocked” each time.
